Reference: patent publication US10329260B2, “Human plasma kallikrein inhibitors” (BioCryst Pharmaceuticals, Inc., priority 2014, dated 2019)

Protein sequences, listed by entry. Tags and fused reporters are not part of them.
UniProt P03952, whole entry, looked up: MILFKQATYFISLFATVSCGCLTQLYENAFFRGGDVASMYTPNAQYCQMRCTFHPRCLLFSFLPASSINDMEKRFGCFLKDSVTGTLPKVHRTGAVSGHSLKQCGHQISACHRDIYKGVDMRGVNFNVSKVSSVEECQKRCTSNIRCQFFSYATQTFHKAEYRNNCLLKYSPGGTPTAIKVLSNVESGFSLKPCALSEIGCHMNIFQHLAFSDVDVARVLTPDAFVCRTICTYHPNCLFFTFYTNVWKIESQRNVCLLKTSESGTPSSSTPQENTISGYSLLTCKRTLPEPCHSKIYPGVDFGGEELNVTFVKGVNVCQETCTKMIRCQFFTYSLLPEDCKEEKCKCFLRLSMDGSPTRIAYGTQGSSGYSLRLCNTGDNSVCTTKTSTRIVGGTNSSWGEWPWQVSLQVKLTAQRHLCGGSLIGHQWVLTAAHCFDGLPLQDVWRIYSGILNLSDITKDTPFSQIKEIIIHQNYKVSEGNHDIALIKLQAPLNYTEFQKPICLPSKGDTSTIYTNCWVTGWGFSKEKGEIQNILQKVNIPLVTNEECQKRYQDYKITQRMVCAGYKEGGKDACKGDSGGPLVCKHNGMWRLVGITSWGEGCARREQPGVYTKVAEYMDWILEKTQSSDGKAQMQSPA

Biological target: human plasma kallikrein (Homo sapiens (Human), UniProt P03952)
Test: Plasma Kallikrein Activity Assay
Format: biochemical
Details: 2 nM kallikrein, 80 μM chromogenic substrate S2302, 30° C., pH 7.8; Ki by Cheng-Prusoff equation

## 1-(3-(aminomethyl)phenyl)-N-(5-((4-(aminomethyl)phenyl)(cyclopropyl-methylamino)methyl)-2-fluorophenyl)-3-(trifluoromethyl)-1H-pyrazole-5-carboxamide [Compound 139b]
  Ki: 0.0001 to 0.05 µM
